# Experimental water solubility values from OPERA 2.9

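These are experimental values that the OPERA curators gathered from public databases to train and test their QSAR models. The files give a single number for a compound and property, which may rest on several reports. Method, purity and exact conditions of the single measurements are not given. Where a salt, mixture or single isomer is drawn, the source does not say that exactly this form was tested. Some upstream entries may be estimates or bounds without being marked so.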

Water solubility is log10 of mol/L, nominally at 25 °C; higher is more soluble. "n/a" marks a cell with nothing listed here.

SMILES | name | log S (log10 mol/L)
CC1CCCCC1=O (stereo unspecified) | 2-Methylcyclohexanone | -0.94
CN(C)c1ccc(N=Nc2ccc(S(=O)(=O)O)cc2)cc1 | 4-{[4-(Dimethylamino)phenyl]diazenyl}benzene-1-sulfonic acid | -3.86
CCN(CC)c1ccc(N=Nc2c(C#N)cc(C)cc2C#N)c(NS(C)(=O)=O)c1 | n/a | -7.233
Clc1ccc(Oc2ccc(Cl)cc2Cl)c(Cl)c1 | Bis(2,4-dichlorophenyl)ether | -6.82
Nc1cnc2c(N)nc(N)nc2n1 | 2,4,7-Pteridinetriamine | -2.902
N#CCCN(CCC#N)c1ccc(N=Nc2c(Br)cc([N+](=O)[O-])cc2C(F)(F)F)cc1 | n/a | -7.85
CCCCCC(O)CCC (stereo unspecified) | 4-Nonanol | -2.586
O=C1c2c(Cl)c(Cl)c(Cl)c(Cl)c2C(=O)C1c1ccc2cccc(N3C(=O)c4c(Cl)c(Cl)c(Cl)c(Cl)c4C3=O)c2n1 | C.I. Pigment Yellow 138 | -7.435
CCN(CC)c1ccc(C=C2OC(=NC3CCCCC3)N(C3CCCCC3)C2=O)c(OC)c1 | n/a | -6.18
NNCCc1ccccc1 | Phenelzine | -1.089
O=[N+]([O-])c1cc(N(CCO)CCO)ccc1NCCO | HC Blue 2 | -2.125
CCCCC(CC)C(=O)OCCOCCOCCOCCOC(=O)C(CC)CCCC (stereo unspecified) | Tetraethylene glycol di(2-ethylhexanoate) | -5.483
CCC(C)NC1CCC(CC2CCC(NC(C)CC)CC2)CC1 (stereo unspecified) | Cyclohexanamine, 4,4'-methylenebis[N-(1-methylpropyl)- | -3.391
FC(F)(F)c1ccc(Cl)c(Cl)c1 | 1,2-Dichloro-4-(trifluoromethyl)benzene | -4.268
COc1ccc(OC)c(Cl)c1 | 2-Chloro-1,4-dimethoxybenzene | -2.672
CN1C(=O)CC(c2ccccc2)C1=O (stereo unspecified) | Phensuximide | -1.933
CC(=O)c1ccc(N)cc1 | 4-Aminoacetophenone | -1.61
Cc1ncc(CO)c(CN)c1O.Cl.Cl | Pyridoxamine dihydrochloride | 0.474
CC(CCCCCCCCC(=O)O)CC(=O)O (stereo unspecified) | 3-Methyldodecanedioic acid | -3.388
O=C(O)C(F)(F)C(F)(F)C(F)(F)C(F)(F)C(F)(F)C(F)(F)C(F)(F)C(F)(F)C(F)(F)C(F)(F)C(F)(F)C(F)(F)C(F)(F)F | Perfluorotetradecanoic acid | -6.382
O=C(O)c1cc(O)cc(C(=O)O)c1 | 5-Hydoxyisophthalic acid | -2.244
O=C1c2ccccc2C(=O)c2c(NCCO)ccc(NCCO)c21 | n/a | -5.77
CC(Cl)C(C)(C)Cl (stereo unspecified) | n/a | -2.69
CC(=O)C1CCc2cc(F)ccc2O1 (stereo unspecified) | 1-(6-Fluoro-3,4-dihydro-2H-chromen-2-yl)ethanone | -2.294
NCc1ccccc1CC(=O)N[C@@H]1C(=O)N2C(C(=O)O)=C(CSc3nnnn3CC(=O)O)CS[C@H]12 | Ceforanide | -3.421
CCOC(=O)CN(CC(=O)OCC)C(=O)Oc1c(C#N)c(C(=O)OC2C(C(C)(C)C)CC(C)CC2C(C)(C)C)c2[nH]c(-c3ccc(C(C)(C)C)cc3)nn12 (stereo unspecified) | n/a | -6.971
CC1=[N+](CCCCS(=O)(=O)[O-])c2ccc3ccccc3c2C1(C)C | n/a | -2.208
C=CC1CCC(C2CCC(c3ccc(C)cc3)CC2)CC1 (stereo unspecified) | n/a | -7.752
CC12CCC3C(CCC4C(C)(C)CCCC43C)(CO1)O2 (stereo unspecified) | n/a | -5.645
CCCC[C@H]1CO[C@H](c2ccc(-c3ccc(-c4cc(F)c(F)c(F)c4)c(F)c3)cc2)OC1 | n/a | -6.94
CC/C=C\CCOC(=O)c1ccccc1 | (3Z)-Hex-3-en-1-yl benzoate | -3.705
CCCCCCCCCCCC(=O)OCC[N+](C)(C)C.[Cl-] | 2-(Dodecanoyloxy)-N,N,N-trimethylethan-1-aminium chloride | -2.211
O=C(Nc1ccc(NC(=O)c2cc3ccccc3c(N=Nc3cc(Cl)ccc3Cl)c2O)cc1)c1cc2ccccc2c(N=Nc2cc(Cl)ccc2Cl)c1O | Pigment Red 166 | -8.087
COc1ccc(-c2coc3cc(O)ccc3c2=O)cc1 | Formononetin | -4.128
CCCc1ccc2c(c1)OC(C(C)=O)O2 (stereo unspecified) | 1-(5-Propyl-1,3-benzodioxol-2-yl)ethanone | -1.98
COc1ccccc1Oc1c(NS(=O)(=O)c2ccc(C(C)(C)C)cc2)nc(-c2ncccn2)nc1OCCO | Bosentan | -4.764
C=C(Cl)C(=O)OCCC(F)(F)C(F)(F)C(F)(F)C(F)(F)C(F)(F)C(F)(F)F | ((Perfluorohexyl)ethyl)-2-chloropropenoate | -5.878
COC(=O)C(=Cc1ccc(OC)cc1)C(=O)OC | Dimethyl (p-methoxybenzylidene)malonate | -3.439
C=CC(=O)O[Si](C(C)C)(C(C)C)C(C)C | Tri-isopropyl silyl acrylate | -4.944
Cc1cnc(C(=O)NCCc2ccc(S(N)(=O)=O)cc2)cn1 | n/a | -4.236
CC1CC(CC2CC(C)C(N)C(C)C2)CC(C)C1N (stereo unspecified) | 4,4'-Methylenebis(2,6-dimethylcyclohexan-1-amine) | -2.633
CCCCC1=NC2(CCCC2)C(=O)N1Cc1ccc(-c2ccccc2C#N)cc1 | n/a | -5.472
CS/C(C)=N/O | Ethanimidothioic acid, N-hydroxy-, methyl ester | -0.924
Cl.Cl.O=C(O)c1ccc(-c2cnc3ncc(Cc4ccc5ncccc5c4)n3n2)cc1F | n/a | -5.036
NS(=O)(=O)c1ccc(S(=O)(=O)CCCCO)s1 | 5-(4-Hydroxybutane-1-sulfonyl)thiophene-2-sulfonamide | -1.481
C=C(C)C(=O)OCCOCCOCCOC(=O)C(=C)C | Triethylene glycol dimethacrylate | -1.901

The 8 lowest values of log S among the entries above:

{"smiles": "O=C(Nc1ccc(NC(=O)c2cc3ccccc3c(N=Nc3cc(Cl)ccc3Cl)c2O)cc1)c1cc2ccccc2c(N=Nc2cc(Cl)ccc2Cl)c1O", "name": "Pigment Red 166", "log S (log10 mol/L)": "-8.087"}
{"smiles": "N#CCCN(CCC#N)c1ccc(N=Nc2c(Br)cc([N+](=O)[O-])cc2C(F)(F)F)cc1", "log S (log10 mol/L)": "-7.85"}
{"smiles": "C=CC1CCC(C2CCC(c3ccc(C)cc3)CC2)CC1", "stereo": "stereo unspecified", "log S (log10 mol/L)": "-7.752"}
{"smiles": "O=C1c2c(Cl)c(Cl)c(Cl)c(Cl)c2C(=O)C1c1ccc2cccc(N3C(=O)c4c(Cl)c(Cl)c(Cl)c(Cl)c4C3=O)c2n1", "name": "C.I. Pigment Yellow 138", "log S (log10 mol/L)": "-7.435"}
{"smiles": "CCN(CC)c1ccc(N=Nc2c(C#N)cc(C)cc2C#N)c(NS(C)(=O)=O)c1", "log S (log10 mol/L)": "-7.233"}
{"smiles": "CCOC(=O)CN(CC(=O)OCC)C(=O)Oc1c(C#N)c(C(=O)OC2C(C(C)(C)C)CC(C)CC2C(C)(C)C)c2[nH]c(-c3ccc(C(C)(C)C)cc3)nn12", "stereo": "stereo unspecified", "log S (log10 mol/L)": "-6.971"}
{"smiles": "CCCC[C@H]1CO[C@H](c2ccc(-c3ccc(-c4cc(F)c(F)c(F)c4)c(F)c3)cc2)OC1", "log S (log10 mol/L)": "-6.94"}
{"smiles": "Clc1ccc(Oc2ccc(Cl)cc2Cl)c(Cl)c1", "name": "Bis(2,4-dichlorophenyl)ether", "log S (log10 mol/L)": "-6.82"}

Values as listed in the OPERA 2.9 repository of K. Mansouri.